The assay addresses Vasopressin V2 receptor (Rattus norvegicus) (UniProt Q00788). Description: Ex vivo receptor occupancy at V2R in isolated perfused Sprague-Dawley rat kidney assessed as dissociation half life at 0.1 uM incubated for 30 mins by LC-MS analysis. It counts as functional, tissue-based.

Chains of the proteins cited; added tags and fusions are not shown.
UniProt Q00788, whole entry: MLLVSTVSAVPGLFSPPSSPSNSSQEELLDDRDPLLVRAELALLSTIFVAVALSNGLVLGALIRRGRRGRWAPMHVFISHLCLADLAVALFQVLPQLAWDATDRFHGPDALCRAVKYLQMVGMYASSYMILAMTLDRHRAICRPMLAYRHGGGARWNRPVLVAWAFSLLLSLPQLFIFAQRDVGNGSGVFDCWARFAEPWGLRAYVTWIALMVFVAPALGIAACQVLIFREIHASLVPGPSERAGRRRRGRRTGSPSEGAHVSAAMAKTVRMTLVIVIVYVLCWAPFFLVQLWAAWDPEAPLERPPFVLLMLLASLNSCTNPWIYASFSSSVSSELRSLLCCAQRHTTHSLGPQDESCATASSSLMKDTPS

In the case of `Cc1ccccc1C(=O)Nc1ccc(C(=O)N2CCCC(NCCCN3CCOCC3)c3cc(Cl)ccc32)c(C)c1` (stereo unspecified), the T1/2 came to 56 min.

For the origin of these results see ChEMBL document CHEMBL5154831 (J Med Chem, 2022).
